Here are results for 57 compounds from patent publication US20220324865A1 (Bayer Aktiengesellschaft, priority 2018, published 2022).

Sequences of proteins named here, by UniProt entry; tags and fusion partners are left off.
UniProt P43115, whole entry: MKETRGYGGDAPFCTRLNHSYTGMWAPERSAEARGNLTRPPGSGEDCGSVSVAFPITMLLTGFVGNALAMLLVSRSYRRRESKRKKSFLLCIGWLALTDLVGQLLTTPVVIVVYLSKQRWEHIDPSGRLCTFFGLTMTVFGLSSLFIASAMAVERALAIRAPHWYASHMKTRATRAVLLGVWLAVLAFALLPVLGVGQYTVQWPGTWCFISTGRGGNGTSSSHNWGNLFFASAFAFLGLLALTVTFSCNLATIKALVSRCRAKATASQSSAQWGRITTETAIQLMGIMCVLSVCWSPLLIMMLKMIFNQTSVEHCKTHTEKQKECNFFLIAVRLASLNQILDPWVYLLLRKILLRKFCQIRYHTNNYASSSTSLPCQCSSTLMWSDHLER

The test concerns the target human EP3 receptor (Homo sapiens, UniProt P43115). Nature of the test: Cellular in vitro assay for determining EP3 receptor activity (human EP3 cell line, sulprostone-stimulated calcium luminescence). The note with it: read-out: EP3 CHO mtCLY ANTAG IC50; CHO cells expressing human EP3 and mitochondrial Clytin; antagonist mode, sulprostone at EC50. As for the experimental part:
B-1. Cellular In Vitro Assay for Determining EP3 Receptor Activity
The identification of antagonists of the EP3 receptor from humans and rats as well as the quantification of the activity of the compounds of the invention was carried out using recombinant cell lines. These cell lines originally derive from a hamsters ovary epithelial cell (Chinese Hamster Ovary, CHO K1, ATCC: American Type Culture Collection, Manassas, Va. 20108, USA). The test cell lines constitutively express the human or rat EP3 receptors. The naturally Gαi-coupled human and rat EP3 receptors were stably co-transfected with Gα16 into cells that are also stably transfected with a mitochondrial form of the calcium-sensitive photoproteins Clytin (human EP3) or Photina (rat EP3), which, after reconstitution with the cofactor coelenterazine, emit light when there are increases in free calcium concentrations (Nature 1992, 358, 325-327; Gene 1995, 153 (2), 273-274). The resulting EP3 receptor cells react to stimulation of the recombinantly expressed EP3 receptors by the agonist sulprostone with intracellular release of calcium ions, which can be quantified by the resulting photoprotein luminescence. Antagonists inhibit the receptor signaling, leading to reduced calcium release and luminescence. The bioluminescence of the cell lines is detected using a suitable luminometer (Trends Pharmacol. Sci. 1996, 17, 235-237).
Human and Rat EP3 Cell Lines:
On the day before the assay, the cells are plated out in culture medium (OptiMEM, 1% FCS, 2 mM glutamine, 10 mM HEPES, 5 μg/ml coelenterazine) in 384-well microtiter plates and kept in a cell incubator (96% humidity, 5% v/v CO2, 37° C.). On the day of the assay, test compounds in various concentrations are placed for 10 minutes in the wells of the microtiter plate before the agonist sulprostone at EC50 concentration is added. The resulting light signal is measured immediately in a luminometer. All concentrations are measured in quadruples.
As a reminder, the IC50 is the concentration needed to halve the response being measured. With `Cc1ccc(-c2cn3nc(C(=O)NC4(c5ccc(F)cc5)CCN(CC(F)(F)F)CC4)cc3c(=O)[nH]2)cc1C`, the IC50 turned out to be 6.9 nM. The value for `Cc1ccc(-c2cn3nc(C(=O)NC(CO)c4ccc(F)cc4)cc3c(=O)[nH]2)cc1C(F)(F)F` (stereo not drawn) was 9.1 nM. The value for `Cc1cc(-c2cn3nc(C(=O)NC(C)CN4CCOCC4)c(C4CC4)c3c(=O)[nH]2)ccc1Cl` (single isomer, unassigned) [6-329] was 5.45 nM; that for `Cc1ccc(-c2cn3nc(C(=O)NC(c4ccc(F)cc4)C4(O)CC4)c(C(F)(F)F)c3c(=O)[nH]2)cc1Cl` (single isomer, unassigned) [6-174] was 1.02 nM; that for `O=C(N[C@H](CN1CC(F)C1)c1ccc(F)cc1)c1nn2cc(-c3ccc4ccccc4c3)[nH]c(=O)c2c1C(F)(F)F` was 1.08 nM. The value for `Cc1ccc(-c2cn3nc(C(=O)NCC(O)C(F)F)c(C4CC4)c3c(=O)[nH]2)cc1C` (single isomer, unassigned) [6-428] was 0.81 nM; that for `Cc1ccc(-c2cn3nc(C(=O)NC4CCN(C5CC5)C4)c(C4CC4)c3c(=O)[nH]2)cc1C` (single isomer, unassigned) [6-448] was 3.05 nM. As for `Cc1ccc(-c2cn3nc(C(=O)NC(c4ccc(F)cc4)C4(O)CC4)cc3c(=O)[nH]2)cc1F` (stereo not drawn), the IC50 was found to be 7.5 nM. For `Cc1ccc(-c2cn3nc(C(=O)NC(CN4CCOCC4)c4ccc(F)cc4)c(C4CC4)c3c(=O)[nH]2)cc1C` (single isomer, unassigned) [6-442], the IC50 was determined as 5.25 nM. For `COC(=O)[C@H](O)[C@@H](NC(=O)c1cc2c(=O)[nH]c(-c3ccc(C)c(C)c3)cn2n1)c1ccccc1` the value was 2.5 nM; for `COc1ccc([C@@H](C)NC(=O)c2cc3c(=O)[nH]c(-c4ccc5ccccc5c4)c(C)n3n2)cn1`, 1.55 nM; for `CC(C)c1c(C(=O)N[C@@H](c2ccc(F)cc2)C(F)(F)CO)nn2cc(-c3cccc(Cl)c3)[nH]c(=O)c12`, 5.25 nM. As for `COc1ccc([C@@H](C)NC(=O)c2nn3c(C)c(-c4ccc5ccccc5c4)[nH]c(=O)c3c2C)cn1`, the IC50 came out at 5.75 nM.

For `CC(C)c1c(C(=O)N[C@@H](c2ccc(F)cc2)C(F)(F)CO)nn2cc(-c3ccc(Cl)cc3)[nH]c(=O)c12`, the IC50 amounted to 1.55 nM. Consider `Cc1ccc(-c2cn3nc(C(=O)NCCN(C)C4CC4)c(C(F)(F)F)c3c(=O)[nH]2)cc1Cl`, for which the IC50 came to 4.7 nM.

For `Cc1ccc(-c2cn3nc(C(=O)N[C@@H](c4ccc(F)cc4)C(C)(C)O)c(C(F)(F)C(F)(F)F)c3c(=O)[nH]2)cc1C`, the IC50 stood at 0.43 nM. For `Cc1cc(-c2cn3nc(C(=O)NC4(c5ccc(F)cc5)CN(C)C4)c(C4CC4)c3c(=O)[nH]2)ccc1C(F)(F)F` the value was 7.75 nM. For `Cc1ccc(-c2cn3nc(C(=O)N[C@@H](c4ccc(F)cc4)C(C)(C)O)cc3c(=O)[nH]2)cc1C1CC1` the value was 2.73 nM; for `Cc1ccc(-c2[nH]c(=O)c3c(C(F)(F)F)c(C(=O)N[C@@H](c4ccc(F)cc4)C(C)(C)O)nn3c2C)cc1C`, 9.55 nM. For `O=C(NCCCF)c1cc2c(=O)[nH]c(-c3ccc4cccc(F)c4c3)cn2n1` the value was 6.25 nM. `Cc1ccc(-c2cn3nc(C(=O)N[C@@H](C)C(C)(C)C)c(C(F)(F)F)c3c(=O)[nH]2)cc1Cl`: the IC50 turned out to be 2.35 nM. As to `Cc1ccc(-c2cn3nc(C(=O)NC4CCN(CC(F)(F)F)C4)c(C4CC4)c3c(=O)[nH]2)cc1C` (single isomer, unassigned) [6-463], the half-inhibitory concentration (IC50) was 0.75 nM. As to `Cc1ccc(-c2cn3nc(C(=O)NCC(O)C(F)F)c(C(F)(F)F)c3c(=O)[nH]2)cc1Cl` (single isomer, unassigned) [6-182], the IC50 is 9 nM. For `Cc1ccc(-c2cn3nc(C(=O)NC4CCN(C5CC5)C4)c(C4CC4)c3c(=O)[nH]2)cc1C` (single isomer, unassigned) [6-447] the value was 4.55 nM. For `Cc1cc(-c2cn3nc(C(=O)N[C@@H](c4ccc(F)cc4)C(C)(C)O)c(C4CC4)c3c(=O)[nH]2)ccc1F` the value was 1.4 nM. Take `Cc1ccc(-c2cn3nc(C(=O)NC(CO)c4ccc(F)cc4)c(C(F)(F)F)c3c(=O)[nH]2)cc1Cl` (stereo not drawn): the IC50 turned out to be 1.85 nM. The value for `Cc1ccc(-c2cn3nc(C(=O)NCC(N)C(F)(F)F)c(C(F)(F)F)c3c(=O)[nH]2)cc1Cl` (single isomer, unassigned) [6-166] was 8.35 nM. For `O=C(NCc1ccccc1)c1cc2c(=O)[nH]c(-c3ccc4c(c3)OCCO4)cn2n1` the value was 2.7 nM; for `Cc1ccc(-c2cn3nc(C(=O)NC(C)c4ccc(OCC(F)(F)F)cn4)cc3c(=O)[nH]2)cc1C` (stereo not drawn), 4.5 nM.

As to `Cc1cc(-c2cn3nc(C(=O)NC(C)CN4CCOCC4)c(C4CC4)c3c(=O)[nH]2)ccc1Cl` (single isomer, unassigned) [6-330], the IC50 turned out to be 9.3 nM.

Take `COC[C@H](C)NC(=O)c1nn2cc(-c3ccc(C)c(Cl)c3)[nH]c(=O)c2c1C1CC1`: the IC50 turned out to be 0.91 nM.

`O=C(NCC(O)C(F)(F)F)c1nn2cc(-c3ccc(Cl)c(F)c3)[nH]c(=O)c2c1C1CC1` (single isomer, unassigned) [6-89]: the IC50 worked out at 1.9 nM. For `O=C(N[C@@H](c1ccc(F)cc1)C(F)(F)CO)c1nn2cc(-c3ccc(C(F)(F)F)c(F)c3)[nH]c(=O)c2c1C1CC1` the value was 2.55 nM; for `Cc1cc(-c2cn3nc(C(=O)N[C@@H](c4ccc(F)cc4)C(C)(C)O)c(C(F)(F)F)c3c(=O)[nH]2)ccc1C(F)(F)F`, 8.1 nM. The value for `Cc1ccc(-c2cn3nc(C(=O)N[C@@H](c4ccc(F)cc4)C(C)(C)O)c(C#N)c3c(=O)[nH]2)cc1C` was 2.7 nM. As to `Cc1ccc(-c2cn3nc(C(=O)NCC(O)C(F)F)c(C4CC4)c3c(=O)[nH]2)cc1C` (single isomer, unassigned) [6-430], the IC50 was determined as 1.9 nM.

Regarding `Cc1cc(-c2cn3nc(C(=O)NCC(O)C(F)(F)F)c(C(F)(F)F)c3c(=O)[nH]2)ccc1Cl` (single isomer, unassigned) [6-205], the half-inhibitory concentration (IC50) came out at 8.55 nM.

As for `COCC(NC(=O)c1nn2cc(-c3ccc(Cl)c(C)c3)[nH]c(=O)c2c1C(F)(F)F)c1ccccc1` (single isomer, unassigned) [6-208], the IC50 was 5.1 nM. The value for `COC[C@H](C)NC(=O)c1nn2cc(-c3ccc(Cl)c(C)c3)[nH]c(=O)c2c1C1CC1` was 5.6 nM; that for `COC[C@@H](C)NC(=O)c1nn2cc(-c3ccc(Cl)c(C)c3)[nH]c(=O)c2c1C1CC1` was 3.4 nM. For `CN(C)CC(NC(=O)c1nn2cc(-c3ccc4ccccc4c3)[nH]c(=O)c2c1C(F)(F)F)c1ccc(F)cc1` (single isomer, unassigned) [6-507] the value was 2.55 nM; for `Cc1ccc(-c2cn3nc(C(=O)NC4(C#N)CCN(C(=O)OC(C)(C)C)C4)c(C(F)(F)F)c3c(=O)[nH]2)cc1F` (stereo not drawn), 3.93 nM. For the compound `Cc1ccc(-c2cn3nc(C(=O)NC(C)(C)CO)c(C4CC4)c3c(=O)[nH]2)cc1Cl`, the IC50 worked out at 4.5 nM. The value for `Cc1ccc(-c2cn3nc(C(=O)NCC(O)C(F)F)c(C4CC4)c3c(=O)[nH]2)cc1Cl` (stereo not drawn) was 0.78 nM; that for `Cc1cc(-c2cn3nc(C(=O)N[C@H](c4ccc(F)cc4)C(C)(C)O)c(C4CC4)c3c(=O)[nH]2)ccc1Cl` was 4.45 nM; that for `Cc1cc(-c2cn3nc(C(=O)N[C@@H](C)C(C)(C)C)c(C4CC4)c3c(=O)[nH]2)ccc1Cl` was 2.3 nM. For `Cc1cc(-c2cn3nc(C(=O)N[C@H](CN4CC[C@H](F)C4)c4ccc(F)cc4)c(C4CC4)c3c(=O)[nH]2)ccc1Cl` the value was 0.94 nM. As to `CN(C)CC(NC(=O)c1nn2cc(-c3ccc4ccccc4c3)[nH]c(=O)c2c1C(F)(F)F)c1ccc(F)cc1` (single isomer, unassigned) [6-508], the IC50 was determined as 6.15 nM. Turning to `O=C(N[C@H](CN1CC(F)C1)c1cccc(F)c1)c1nn2cc(-c3ccc4ccccc4c3)[nH]c(=O)c2c1C(F)(F)F`, the IC50 amounted to 1.11 nM.

Consider `Cc1cc(-c2cn3nc(C(=O)N[C@H](C)C4CC4)c(C4CC4)c3c(=O)[nH]2)ccc1C(F)(F)F`, for which the IC50 stood at 7.75 nM. Regarding `O=C(N[C@@H](c1ccc(F)cc1)C(F)(F)CO)c1nn2cc(-c3ccc(Cl)c(F)c3)[nH]c(=O)c2c1C1CC(F)(F)C1`, the IC50 amounted to 7.25 nM.

Take `CN1CCOc2ccc(-c3cn4nc(C(=O)N[C@H](CCO)c5ccc(F)cc5)cc4c(=O)[nH]3)cc21`: the IC50 was 2.15 nM. The value for `Cc1cc(-c2cn3nc(C(=O)N[C@H](CN4CC[C@@H](F)C4)c4ccc(F)cc4)c(C4CC4)c3c(=O)[nH]2)ccc1Cl` was 0.99 nM; that for `Cc1ccc(-c2cn3nc(C(=O)NC(CO)C(F)(F)F)c(C4CC4)c3c(=O)[nH]2)cc1Cl` (stereo not drawn) was 1.35 nM.

Turning to `O=C(NC(CO)C(F)(F)F)c1nn2cc(-c3ccc(Cl)c(F)c3)[nH]c(=O)c2c1C1CC1` (single isomer, unassigned) [6-92], the IC50 is 9.45 nM. The value for `C[C@H](NC(=O)c1nn2cc(-c3ccc(C(F)(F)F)c(F)c3F)[nH]c(=O)c2c1C1CC1)C1CC1` was 9.33 nM; that for `Cc1ccc(-c2cn3nc(C(=O)NC4(c5ccc(F)cc5)CN(C)C4)cc3c(=O)[nH]2)cc1C1CC1` was 9.3 nM.
